One may read the IC50 as the concentration that inhibits the measured activity by half.

The target in this assay is T1, HDAC10 (Homo sapiens, UniProt Q969S8).
T1 sequence (Q969S8 1-669): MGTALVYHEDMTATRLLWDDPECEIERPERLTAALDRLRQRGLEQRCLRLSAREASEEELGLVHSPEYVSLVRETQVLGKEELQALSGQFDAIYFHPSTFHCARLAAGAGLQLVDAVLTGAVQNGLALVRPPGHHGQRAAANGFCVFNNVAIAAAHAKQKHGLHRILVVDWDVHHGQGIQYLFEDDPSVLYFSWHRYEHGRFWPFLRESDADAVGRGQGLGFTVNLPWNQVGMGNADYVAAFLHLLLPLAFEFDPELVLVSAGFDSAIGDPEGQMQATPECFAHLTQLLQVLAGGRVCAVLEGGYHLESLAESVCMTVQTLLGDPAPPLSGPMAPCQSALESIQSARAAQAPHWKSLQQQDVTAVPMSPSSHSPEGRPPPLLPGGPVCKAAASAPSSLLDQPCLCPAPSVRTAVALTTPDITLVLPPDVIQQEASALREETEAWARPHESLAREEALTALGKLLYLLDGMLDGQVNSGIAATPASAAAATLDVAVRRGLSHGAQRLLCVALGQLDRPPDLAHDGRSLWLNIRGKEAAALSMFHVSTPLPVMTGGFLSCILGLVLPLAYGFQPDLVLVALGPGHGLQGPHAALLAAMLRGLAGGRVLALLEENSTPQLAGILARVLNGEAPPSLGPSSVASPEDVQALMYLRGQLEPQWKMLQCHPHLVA
To be noted: read-out: IC50 HDAC10; Table 4, Class IIb.

Structures are written as SMILES.

Consider `O=C(CCCCCCC(=O)Nc1ccccc1)NO` [SAHA, reference compound], for which the IC50 was 170 ± 10 nM.

The values are drawn from patent US10532053B2, “Histone deacetylase inhibitor, and preparation method and use thereof” (GUANGDONG ZHONGSHENG PHARMACEUTICAL CO., LTD, priority 2015, dated 2020).
